Data: patent US10086082B2, “Plant steroids and uses thereof” (DAVIDSON LOPEZ LLC, priority 2011, dated 2018)

System: Caco-2 cells
Assay: Gene expression profiling of Caco-2 cells treated with compounds (Illumina HT-12 arrays, Volcano plots)
Type: cell-based, human

Substance	Interleukin-1, beta gene regulation (24 hours exposure, gene array)	upregulation of insulin induced gene 1 (24 hours exposure, gene profiling experiments)	interleukin receptor and interleukins affected (gene array)	similarity of gene profile to prednisone (gene array)
Stigmasterol Triethyleneglycol Oxyacetic Acid Prednisolone Ester [SE-41]	downregulated	1.5 fold	affected	
Stigmasterol Triethyleneglycol Prednisolone Succinate [SE-22]			affected	more similar gene profiles to prednisone
